Results on 1 substance are retold here after US11298339B2 (priority 2017, dated 2022).

The assay deals with HBV. Kind of assay: Compound 1 in combination with IFNα2a in chronic HBV infection mouse model (pAAV-HBV1.2 plus pKCMvint IFNα-2a or control plasmid). In kind it is in vivo, C57BL/6J mice. As for the experimental part: Chronic HBV infection mouse model was established using C57BL/6J mice (6 to 8 W, body weight 20 t 2 g) that were subjected to the high-pressure tail vein injection of a mixture of pAAV-HBV1.2 plasmid and pKCMvint IFNα-2a plasmid or pKCMvint control plasmid (6 μg/mouse), and expressed IFNα2a. One day after modeling, the mice were divided into 4 groups. Group A (0.9% saline injection group): pAAV-HBV1.2+pKCMvint+0.9%/NaCl; Group B (Compound 1 10 mg/kg intravenous injection group): pAAV-HBV1.2+pKCMvint+Compound 1 10 mg/kg; Group C (IFNα-2a group): pAAV-HBV1.2+pKCMvint IFNα-2a+0.9% NaCl; Group D (Compound 1 in combination with IFNα-2a group): pAAV-HBV1.2+pKCMvint IFNα-2a+APG 10 mg/kg. There were 5 mice in each group (except Group D that included 7 mice), the administration was performed for consecutive 3 times, i.e., on the day 1 after modeling, and on the days 7 and 14 after modeling; blood was collected once at orbital margin one day before the administration, and serum HBsAg/HBeAg levels were detected using Roche 601 instrument.

With “IFNα-2a: IFNα2a expressed in mice from pKCMvint IFNα-2a plasmid injected with pAAV-HBV1.2”, the “serum HBeAg compared with Group A (saline)” value (days 7, 14, 21 (P 0.004 on 7th day, 0.021 on 7th day as printed, 0.001 on 21st day)) is given as “statistically significant differences”. Also, the “serum HBsAg compared with Group A (saline)” value (days 7, 14, 21 (P 0.010, 0.008, 0.004), Compound 1 10 mg/kg i.v. days 1, 7, 14, IFNα-2a plasmid-expressed) is recorded as “statistically significant differences”.
